Earlier results on 1 compound are cited in patent publication US20170007595A1, “NSD3 INHIBITORS FOR TREATMENT OF CANCERS” (THE BRIGHAM AND WOMEN'S HOSPITAL, INC., priority 2014, published 2017).

The test system of the series is BET proteins. As to conditions: cited from earlier work.

A word on the IC50: it is the midpoint of a concentration-inhibition curve. In the case of `CCNC(=O)C[C@@H]1N=C(c2ccc(Cl)cc2)c2cc(OC)ccc2-n2c(C)nnc21` [I-BET-762], the IC50 is about 35 nM.
